From PubChem BioAssay AID629 (Emory University Molecular Libraries Screening Center, 2007)
Only a part is listed here, and it is no random draw. The source made the active and inactive calls. Rule as the data show it: active = inhibition above about 50%; inactive = the rest.

By UniProt entry, the sequences of proteins in these tests, tags left out.
UniProt P03372, whole entry: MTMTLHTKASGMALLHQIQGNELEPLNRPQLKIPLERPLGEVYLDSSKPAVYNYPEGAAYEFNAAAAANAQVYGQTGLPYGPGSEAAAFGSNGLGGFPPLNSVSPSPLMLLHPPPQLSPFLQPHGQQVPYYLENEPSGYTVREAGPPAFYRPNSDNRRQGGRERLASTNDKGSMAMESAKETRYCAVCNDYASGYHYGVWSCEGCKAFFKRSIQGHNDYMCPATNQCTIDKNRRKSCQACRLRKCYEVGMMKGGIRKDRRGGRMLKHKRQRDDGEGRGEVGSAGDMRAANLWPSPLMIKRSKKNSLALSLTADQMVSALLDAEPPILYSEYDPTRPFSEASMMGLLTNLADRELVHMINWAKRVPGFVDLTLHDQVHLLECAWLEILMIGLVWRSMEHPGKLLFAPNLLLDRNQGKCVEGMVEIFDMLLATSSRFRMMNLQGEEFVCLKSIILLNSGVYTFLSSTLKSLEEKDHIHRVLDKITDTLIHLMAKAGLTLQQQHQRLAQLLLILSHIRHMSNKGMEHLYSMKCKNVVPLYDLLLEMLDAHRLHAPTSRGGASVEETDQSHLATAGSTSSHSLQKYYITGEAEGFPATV

biological target: Estrogen receptor (Homo sapiens) (UniProt P03372); assay: blockers of SRC-1 peptide recruitment to ERα – biochemical, TR-FRET, ERα LBD, estradiol-bound, primary screen (AID 629); conditions: TR-FRET ER-alpha LBD / SRC-1 peptide, at 25.6 µM, hits give high values;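 also: 0% = receptor plus peptide control and 100% = peptide only without receptor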

Question: `CN(C)CCOC(=O)C(O)(c1ccccc1)C1CCCCC1` (configuration not stated) was tested. Which inhibition did it give?
Answer: Its inhibition is inactive: -12.4%.

Question: `CCOP(C)(=S)SCC(=O)NC(C)(CC)C(=O)O` (configuration not stated) was tested. Which inhibition did it give?
Answer: The inhibition was inactive: -0.68%.

Question: How did the inhibition turn out when `Cc1ccccc1NP(C)(=O)Nc1ccccc1C` was run?
Answer: Its inhibition is inactive: 6.35%.

Question: `CP(=O)(Nc1ccc2c(c1)OCCO2)Oc1ccccc1` (configuration not stated) was tested. Which inhibition did it give?
Answer: Its inhibition is inactive: 5.36%.

Question: How did the inhibition turn out when `CP(=O)(Nc1ccccc1F)Oc1ccccc1` (configuration not stated) was run?
Answer: Its inhibition is inactive: -3.08%.

Question: With `CP(=O)(Nc1ccccc1)Oc1ccc(F)cc1` (configuration not stated) as the compound, how does the inhibition read?
Answer: The inhibition was inactive: -8.4%.

Question: For `CCN(CC)CCCOC(=O)C(O)(c1ccccc1)C1CCCCC1` (configuration not stated), which inhibition is on record?
Answer: The inhibition was inactive: -15.1%.

Question: For `COc1ccccc1OP(C)(=O)Nc1ccc(C)c(C)c1` (configuration not stated), which inhibition is on record?
Answer: The inhibition was inactive: -8.1%.

Question: Which inhibition does the source give for `Cc1nc2ccc3ccccc3c2o1.O=[N+]([O-])c1cc([N+](=O)[O-])c(O)c([N+](=O)[O-])c1` here?
Answer: Its inhibition is inactive: 8.41%.

Question: `COc1ccc(OP(C)(=O)Nc2ccccn2)cc1` (configuration not stated) was tested. Which inhibition did it give?
Answer: The inhibition was inactive: 6.32%.

Question: For `CN(C)CCOC(=O)C(O)(c1ccccc1)C1CCCC1` (configuration not stated), which inhibition is on record?
Answer: Its inhibition is inactive: -0.57%.

Question: `COc1ccccc1OP(C)(=O)Nc1ccc(C)cc1C` (configuration not stated) was tested. Which inhibition did it give?
Answer: Its inhibition is inactive: -1.16%.

Question: With `CP(=O)(Nc1ccccn1)Oc1ccccc1` (configuration not stated) as the compound, how does the inhibition read?
Answer: Its inhibition is inactive: -2.85%.

Question: For `CCc1ccc(OP(C)(=O)O)cc1`, which inhibition is on record?
Answer: The inhibition was inactive: 3.68%.

Question: For `Cc1c(NP(C)(=O)Oc2ccc(C(C)C)cc2)c(=O)n(-c2ccccc2)n1C` (configuration not stated), which inhibition is on record?
Answer: The inhibition was inactive: -6.45%.

Question: For `COc1ccccc1OP(C)(=O)Nc1c(C)n(C)n(-c2ccccc2)c1=O` (configuration not stated), which inhibition is on record?
Answer: The inhibition was inactive: -6.71%.

Question: Which inhibition does the source give for `CP(=O)(Oc1ccccc1)N1CCOC1=O` (configuration not stated) here?
Answer: The inhibition was inactive: 0.3%.

Question: Which inhibition does the source give for `CC(C)(C)c1ccc(OP(C)(=O)O)cc1` here?
Answer: Its inhibition is inactive: -0.07%.

Question: How did the inhibition turn out when `CP(=O)(Nc1ccc(Cl)cc1)Oc1ccc(F)cc1` (configuration not stated) was run?
Answer: The inhibition was inactive: 7.77%.

Question: With `CP(=O)(OC12CC3CC(CC(C3)C1)C2)OC12CC3CC(CC(C3)C1)C2` as the compound, how does the inhibition read?
Answer: Its inhibition is inactive: 0.48%.

Question: How did the inhibition turn out when `CP(=S)(Nn1cnnc1)Oc1ccccc1` (configuration not stated) was run?
Answer: Its inhibition is inactive: -1.21%.

Question: Which inhibition does the source give for `CP(=O)(NC(=O)Nc1ccccc1)Oc1ccccc1` (configuration not stated) here?
Answer: The inhibition was inactive: -3.83%.

Question: For `CP(=O)(Nc1ccccn1)Oc1ccc(Cl)cc1` (configuration not stated), which inhibition is on record?
Answer: Its inhibition is inactive: -11%.

Question: Which inhibition does the source give for `CCOP(C)(=S)SCC(=O)NC(C)C(=O)O` (configuration not stated) here?
Answer: The inhibition was inactive: -0.05%.

Question: Which inhibition does the source give for `COc1ccc(OP(C)(=O)Nc2cccc(F)c2)cc1` (configuration not stated) here?
Answer: The inhibition was inactive: -4.42%.

Question: How did the inhibition turn out when `Cc1ccc(NP(C)(=O)Oc2ccccc2)c(C)c1` (configuration not stated) was run?
Answer: The inhibition was inactive: 5.26%.

Question: For `COc1ccccc1OP(C)(=O)Nc1ccc(C)cc1` (configuration not stated), which inhibition is on record?
Answer: Its inhibition is inactive: -3.25%.

Question: With `Cc1cc(C)cc(OP(C)(=O)Nc2ccc(C)cc2C)c1` (configuration not stated) as the compound, how does the inhibition read?
Answer: The inhibition was inactive: -7.1%.

Question: How did the inhibition turn out when `Cc1ccc(C)c(NP(C)(=O)Oc2ccccc2)c1` (configuration not stated) was run?
Answer: The inhibition was inactive: 6.09%.

Question: With `Cc1cc(C)cc(OP(C)(=O)Nc2ccccn2)c1` (configuration not stated) as the compound, how does the inhibition read?
Answer: Its inhibition is inactive: 2.99%.

Question: Which inhibition does the source give for `Cc1nc2ccc3ccccc3c2s1.O=[N+]([O-])c1cc([N+](=O)[O-])c(O)c([N+](=O)[O-])c1` here?
Answer: The inhibition was inactive: 9.04%.

Question: Which inhibition does the source give for `COc1ccccc1OP(C)(=O)Nc1c(C)cccc1C` (configuration not stated) here?
Answer: The inhibition was inactive: -9.53%.
